Test results published in patent publication US8012504B2, “Sustained release of guaifenesin combination drugs” (priority 2000, dated 2011).

Experiment: Example 16: interaction potential, Mucinex and Sudafed 12 Hour alone or together, 3-way crossover
Type: in vivo, human
Conditions: mean; 120 mg along with 1200 mg guaifenesin compared to 120 mg pseudoephedrine alone
Method: In another study drug interaction potential for combination drugs was examined. The interaction potential for 1200 mg guaifenesin and 120 mg Pseudoephedrine Hydrochloride was compared to reference in an open label, single dose, randomized, 3-way crossover study using 36 subjects.
Group B received a 120 mg controlled release pseudoephedrine product (Sudafed® 12 Hour) with 240 mL of room-temperature water after an overnight fast.

With `CN[C@@H](C)[C@@H](O)c1ccccc1` [Pseudoephedrine, Pseudoephedrine hydrochloride] the “Ratio of pseudoephedrine Clearance” value was 103.99% and the “Ratio of pseudoephedrine Half-life” value was 103.30%.

Where a name gives a salt, the structure may show the parent alone.
